Measurements as given in patent US20070134753A1, “Assay for determining the activity of fatty acid amide hydrolase” (priority 2002, published 2007).

The chains behind the UniProt entries cited, without tags or fusion partners.
UniProt O00519, whole entry: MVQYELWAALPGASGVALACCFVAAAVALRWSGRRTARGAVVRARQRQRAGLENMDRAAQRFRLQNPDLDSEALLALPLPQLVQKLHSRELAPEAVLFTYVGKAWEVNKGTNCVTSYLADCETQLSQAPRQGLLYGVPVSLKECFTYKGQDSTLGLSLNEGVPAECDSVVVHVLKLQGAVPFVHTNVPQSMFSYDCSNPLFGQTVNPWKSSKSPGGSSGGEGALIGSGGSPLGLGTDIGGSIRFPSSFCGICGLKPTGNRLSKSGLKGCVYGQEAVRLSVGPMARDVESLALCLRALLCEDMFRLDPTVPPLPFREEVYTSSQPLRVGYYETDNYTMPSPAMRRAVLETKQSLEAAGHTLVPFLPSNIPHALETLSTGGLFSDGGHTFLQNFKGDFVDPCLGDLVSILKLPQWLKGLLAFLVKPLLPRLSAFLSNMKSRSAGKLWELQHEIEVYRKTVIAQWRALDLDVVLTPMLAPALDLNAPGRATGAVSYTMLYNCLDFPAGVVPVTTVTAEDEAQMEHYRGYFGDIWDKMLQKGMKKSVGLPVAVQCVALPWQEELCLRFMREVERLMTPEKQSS
UniProt P97612, whole entry: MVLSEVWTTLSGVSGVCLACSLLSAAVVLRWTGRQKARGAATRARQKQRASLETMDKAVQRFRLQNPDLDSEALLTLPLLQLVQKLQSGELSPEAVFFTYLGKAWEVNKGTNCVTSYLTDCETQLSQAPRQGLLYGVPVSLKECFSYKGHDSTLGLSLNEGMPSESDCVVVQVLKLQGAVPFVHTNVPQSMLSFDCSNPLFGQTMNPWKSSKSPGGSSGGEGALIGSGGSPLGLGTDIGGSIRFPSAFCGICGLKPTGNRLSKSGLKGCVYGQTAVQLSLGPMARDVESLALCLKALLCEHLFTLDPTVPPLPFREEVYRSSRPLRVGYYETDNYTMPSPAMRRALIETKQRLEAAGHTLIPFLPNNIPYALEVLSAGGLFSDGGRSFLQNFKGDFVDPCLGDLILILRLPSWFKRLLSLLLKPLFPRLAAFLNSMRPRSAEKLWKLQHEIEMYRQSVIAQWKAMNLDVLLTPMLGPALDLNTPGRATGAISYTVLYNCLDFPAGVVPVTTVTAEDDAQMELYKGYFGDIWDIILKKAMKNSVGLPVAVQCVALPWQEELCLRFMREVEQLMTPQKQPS

Assays:
FAAH [1] = biological target: FAAH (Homo sapiens, UniProt O00519); experiment: FAAH charcoal filter-plate assay with 3H-anandamide in T84 membranes; format: biochemical; conditions: room temperature 60 min, average ± S.E. of 2-5 experiments, each in triplicate
FAAH [2] = biological target: FAAH (Rattus norvegicus, UniProt P97612); conditions: read-out: Literature (ref) IC50; literature data; listed as methyl arachidonyl fluorophosphate; cited from earlier work

For CCCCC/C=C\C/C=C\C/C=C\C/C=C\CCCCP(=O)(F)OC (centres unmarked), which IC50 (FAAH [1]) is on record?
Its IC50 is 0.8 nM.

What about the IC50 (FAAH [2]) of the same compound?
The IC50 was 1 to 3 nM.
